Earlier results on one compound are cited in paper PMC3815326 (Microbial biotechnology, 2012).

The test system of this data set is TodS. The note with it: agonist / antagonist classification, ref Busch et al., 2007, cited from earlier work.

The structures appear in SMILES notation. Like-named read-outs stand apart in the source and are kept apart here.

For the compound `Cc1ccccc1` [Toluene], the “Effect on TodS” value was “Agonist”. Besides, for the setting “listed as toluene”, the “Effect on TodS” value is on record as “Agonists”.
